Biological target: taxol-stabilized microtubules made from PC tubulin
Experiment: microtubule pelleting assay, htau40 (FIG. 36)

htau40 phosphorylated with MAP kinase (from UniProt P10636 1-441)
Dn (difference in stoichiometry upon phosphorylation) (tau/tubulin dimer): 0.09

htau40 phosphorylated with the brain extract kinase activity (from UniProt P10636 1-441)
Dn (difference in stoichiometry upon phosphorylation) (tau/tubulin dimer): 0.31
